Measured values taken from PMC4686660, “MLLT1 YEATS domain mutations in clinically distinctive Favourable Histology Wilms tumours” (Nature Communications, 2015).

Biological target: T1, MLLT1 YEATS domain polypeptide p.111_113NPP>K (human, UniProt Q03111 1-138, p.111_113NPP>K)
T1 construct: MLLT1 (ENL), human, YEATS domain, residues 1-138 of the wild type, with the somatic Wilms tumour mutation c.333_339 (NPP 111-113 replaced by K); Somatic mutation found in tumours; source: E. coli BL21(pLysS), purified (Ni-NTA sepharose, size exclusion chromatography)
T1 sequence (looked up): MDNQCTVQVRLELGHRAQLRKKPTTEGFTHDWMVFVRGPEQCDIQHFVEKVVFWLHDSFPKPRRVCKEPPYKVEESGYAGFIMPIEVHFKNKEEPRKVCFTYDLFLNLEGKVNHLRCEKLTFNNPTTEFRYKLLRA
Experiment: ITC; YEATS domain in the measurement cell (90-130 uM), histone peptides in the injection syringe (1.2 mM); 50 mM Hepes pH 7.4, 300 mM NaCl, 5 mM beta-mercaptoethanol, 25 °C; MicroCal ITC200 and TA Nano microcalorimeters; triplicate
Conditions: both partners purified

Kd: 57 µM
B1: H3K9ac histone H3 tail peptide (peptide)
chain: ARTKQTARKST
modifications: acetyl-lysine at K9
